The numbers were not newly measured in article PMC5272823 (Peptides, 2016), which cites them from elsewhere.

The conditions of the series: ref [7]; cited from earlier work.

As for insulin, the Plasma insulin half-life was 4 to 6 min.
